Laboratory results reported in US10214520B2, “Substituted azaspiro(4.5)decane derivatives” (priority 2014, dated 2019).
Where two headings read alike, the source gives them in different places.

Protein sequences, listed by entry. Tags and fused reporters are not part of them. Lines headed by an entry give the natural chain unless they say otherwise; changes in a name come on top.
UniProt P41146: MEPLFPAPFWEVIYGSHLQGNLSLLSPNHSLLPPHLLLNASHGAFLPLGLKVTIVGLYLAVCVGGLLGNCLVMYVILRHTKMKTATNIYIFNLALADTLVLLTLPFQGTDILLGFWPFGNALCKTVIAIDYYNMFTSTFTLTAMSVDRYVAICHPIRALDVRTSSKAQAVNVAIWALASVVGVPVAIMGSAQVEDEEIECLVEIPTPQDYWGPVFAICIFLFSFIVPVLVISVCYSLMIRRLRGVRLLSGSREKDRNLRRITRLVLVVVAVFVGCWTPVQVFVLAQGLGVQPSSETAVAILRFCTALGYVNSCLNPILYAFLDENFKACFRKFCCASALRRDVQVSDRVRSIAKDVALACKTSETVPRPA
UniProt P35372, whole entry, looked up: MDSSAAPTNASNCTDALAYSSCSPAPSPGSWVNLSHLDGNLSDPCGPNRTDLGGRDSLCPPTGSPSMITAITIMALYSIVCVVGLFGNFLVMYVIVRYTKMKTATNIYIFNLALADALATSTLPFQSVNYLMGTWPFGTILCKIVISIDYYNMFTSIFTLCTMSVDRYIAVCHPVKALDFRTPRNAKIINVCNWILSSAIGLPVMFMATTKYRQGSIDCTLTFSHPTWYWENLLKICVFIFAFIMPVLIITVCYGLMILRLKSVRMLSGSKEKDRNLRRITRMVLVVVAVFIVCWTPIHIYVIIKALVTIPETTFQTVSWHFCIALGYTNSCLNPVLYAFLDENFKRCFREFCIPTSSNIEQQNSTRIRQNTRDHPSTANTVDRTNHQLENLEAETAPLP

Experiments:
ORL1 receptor = ORL1 receptor (Homo sapiens, UniProt P41146); details: for % inhibition (ORL1) [1 μM] / ORL1 % Inhibition @ 1 μM: test concentration 1 μM
human μ opiate receptor = human μ opiate receptor (Homo sapiens, UniProt P35372); test: μ opiate receptor binding assay with [3H]-naloxone, membrane preparation of CHO-K1 cells (WGA-SPA beads); details: for % inhibition (μ) [1 μM] / MOP % Inhibition @1 μM: test concentration 1 μM
[1] = read-out: Ki (ORL1) mean [μm], mean
[2] = read-out: Ki (μ) mean [μm], mean

Compound	Ki (ORL1 receptor; [1])	% inhibition (ORL1) [1 μM] (ORL1 receptor)	Ki (human μ opiate receptor; [2])	% inhibition (μ) [1 μM] (human μ opiate receptor)	Ki (ORL1 receptor; read-out: ORL1 Ki)	ORL1 % Inhibition @ 1 μM (ORL1 receptor)	Ki (human μ opiate receptor; read-out: MOP Ki)	MOP % Inhibition @1 μM (human μ opiate receptor)
CN(C)C1(c2ccc(F)s2)CCC2(CCN(C(=O)/C=C/c3ccccc3)C2)CC1 (centres unmarked)	4.5 nM	90.5%	2.25 nM	100%				
CN(C)[C@]1(c2ccccc2)CC[C@]2(CC1)CC(=O)N(CCC(=O)NCCCC#N)C2					465 nM	43%	56.5 nM	89%
CN(C)[C@]1(c2ccccc2)CC[C@]2(CC1)CC(=O)N(CC(=O)NCC#N)C2					27.5 nM	71%	37.5 nM	97%
cis-3-(8-Dimethylamino-3-oxo-8-pyridin-2-yl-2-azaspiro[4.5]decan-2-yl)-2,2-dimethyl-propionic acid hydrochloride						5%	3700 nM	26%
Cc1ccc(N2C[C@]3(CC[C@@](c4ccccc4)(N(C)C)CC3)CC2=O)c(C#N)c1					4.9 nM	94%	2.4 nM	99%
CN(C)[C@]1(c2ccccc2)CC[C@]2(CC1)CC(=O)N(CCC(C)(C)C(=O)NCCS(C)(=O)=O)C2					205 nM	71%	57.5 nM	93%
CN1CCC(CC(=O)N2CCC3(CCC(c4cccs4)(N(C)C)CC3)C2)CC1 (single isomer, unassigned)		32.5%		88%				
CN(C)C1(c2ccccc2)CCC2(CCN(C(=O)Cc3cccnc3)C2)CC1 (centres unmarked)					23.3 nM	82%	3.1 nM	101%
CN(C)[C@]1(c2ccccc2)CC[C@@]2(CC1)CC(=O)N(c1ccc(F)cn1)C2					117 nM		89 nM	
CN(C)[C@]1(c2ccccc2)CC[C@]2(CC1)CC(=O)N(CCC(C)(C)C(=O)NCc1ccccc1)C2					4.9 nM	95%	10.8 nM	94%
CN(C)C1(c2ccccc2)CCC2(CCN(C(=O)CCc3ccccc3)C2)CC1 (centres unmarked)					0.3 nM	95%	1.3 nM	96%
CN(C)[C@]1(c2ccccc2)CC[C@]2(CC1)CC(=O)N(CC(C)(C)C(=O)N1CCN(S(C)(=O)=O)CC1)C2					190 nM	53%	115 nM	83%
CN(C)[C@]1(c2ccccn2)CC[C@]2(CC1)CC(=O)N(CC(N)=O)C2					1700 nM	9%	2640 nM	30%
COC(=O)c1ccc(N2C[C@]3(CC[C@@](c4ccccc4)(N(C)C)CC3)CC2=O)cc1						30%		90%
COc1ccc(N2CC3(CCC(c4ccccc4)(N(C)C)CC3)CC2=O)cn1 (centres unmarked)					75 nM		150 nM	
CN(C)C1(c2ccccn2)CCC2(CC1)CC(=O)N(CCC(=O)OC(C)(C)C)C2 (centres unmarked)					250 nM	43%	43.5 nM	97%
Cc1nccc(NC(=O)C(C)(C)CCN2C[C@]3(CC[C@@](c4ccccc4)(N(C)C)CC3)CC2=O)n1					33.5 nM	75%	13 nM	101%
CN(C)[C@]1(c2ccccc2)CC[C@]2(CC1)CC(=O)N(CCC(=O)Nc1ccccn1)C2					130 nM	74%	28 nM	91%
CNC(=O)CNC(=O)CN1C[C@]2(CC[C@@](c3ccccc3)(N(C)C)CC2)CC1=O					245 nM	45%	265 nM	80%
CN(C)C1(c2cccs2)CCC2(CCN(C(=O)c3ccccn3)C2)CC1 (centres unmarked)	110 nM	45%	79.5 nM	77.5%				
